Results: ChEMBL document CHEMBL6087482, “Discovery of INCB159020, an Orally Bioavailable KRAS G12D Inhibitor” (J Med Chem, 2025)

Columns and labels:
[1] = target: GTPase HRas (Homo sapiens) (UniProt P01112); assay: Binding affinity to wildtype HRAS (unknown origin) assessed as GDP-GTP exchange upto 10 uM preincubated for 4 hrs followed by GppNHp and SOS1 addition and measured after 2 hrs by fluorescence based plate reader analysis; details: time 6.0 hrs
[2] = target: GTPase NRas (Homo sapiens) (UniProt P01111); assay: Binding affinity to wildtype NRAS (unknown origin) assessed as GDP-GTP exchange upto 10 uM preincubated for 4 hrs followed by GppNHp and SOS1 addition and measured after 2 hrs by fluorescence based plate reader analysis; details: time 6.0 hrs

`Cc1cnc(-c2nc3c(F)c(-c4cccc(Cl)c4C)c(CCC#N)cc3c3c2cc([C@@H](C)N2CCOCC2=O)n3[C@H]2[C@H]3CN[C@@H]2C3)cn1` was tested, and the Activity [1] was “inactive” and the Activity [2] was “inactive”.

The source made the active and inactive calls. The rule behind the calls is not given here.
